Data: publication PMC10299727, “Identification and Isolation of α-Glucosidase Inhibitors from Siraitia grosvenorii Roots Using Bio-Affinity Ultrafiltration and Comprehensive Chromatography” (International Journal of Molecular Sciences, 2023)

Chains of the proteins cited; added tags and fusions are not shown. Lines headed by an entry give the natural chain unless they say otherwise; changes in a name come on top.
UniProt P53341: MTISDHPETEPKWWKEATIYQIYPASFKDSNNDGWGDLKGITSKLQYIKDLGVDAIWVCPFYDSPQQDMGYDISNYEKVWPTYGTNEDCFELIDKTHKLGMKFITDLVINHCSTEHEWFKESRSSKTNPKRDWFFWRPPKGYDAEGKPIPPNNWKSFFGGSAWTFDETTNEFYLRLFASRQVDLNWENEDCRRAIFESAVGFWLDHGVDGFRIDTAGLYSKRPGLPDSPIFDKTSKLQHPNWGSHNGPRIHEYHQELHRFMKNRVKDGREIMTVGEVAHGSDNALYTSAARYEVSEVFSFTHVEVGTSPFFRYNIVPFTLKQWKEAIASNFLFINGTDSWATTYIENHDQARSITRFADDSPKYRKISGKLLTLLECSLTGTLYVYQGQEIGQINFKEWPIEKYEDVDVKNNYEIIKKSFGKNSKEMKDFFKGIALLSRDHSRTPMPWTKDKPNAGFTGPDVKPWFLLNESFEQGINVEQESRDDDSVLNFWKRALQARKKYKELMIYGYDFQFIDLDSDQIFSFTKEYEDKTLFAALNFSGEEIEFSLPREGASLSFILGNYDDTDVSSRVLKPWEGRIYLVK

Molecular target: T1, α-glucosidase (Saccharomyces cerevisiae, UniProt P53341)
T1 construct: purchased Sigma-Aldrich (Shanghai, China) G5003-100UN
Assay: α-glucosidase inhibitory assay (pNPG substrate, absorbance at 405 nm)
Format: biochemical
Conditions: isolated compounds; acarbose positive control
Method: The α-glucosidase inhibitory activity of the S. grosvenorii root extracts was determined using a method mentioned previously, with some modifications to it. Briefly, the sample was dissolved in PBS containing 10% dimethyl sulfoxide. A mixture of the tested sample (50 μL, different concentrations) and α-glucosidase (20 μL, 0.2 U/mL) was placed in a 96-well microplate and incubated at 37 °C for 5 min. Next, 20 μL pNPG (1 mM) was added, and the mixture was further reacted for 30 min at 37 °C and terminated through the addition of […] solution (50 μL, […]). The percentage inhibition of α-glucosidase was determined by measuring the absorbance of the mixture at 405 nm and calculated by Equation (1):Inhibition (%) = [1 − (Ainhibitor − Ablank inhibitor)/(Acontrol − Acontrol blank)] × 100(1) where Ainhibitor, Ablank inhibitor, Acontrol, Acontrol blank are the absorbance values of the potential inhibitor and α-glucosidase, only the potential inhibitor without α-glucosidase, only α-glucosidase, and PBS buffer, respectively.

## Cucurbitacin B [Compound 15]
  IC50: 1510 ± 57 µM
